Literature values, collected in publication PMC6381106 (Scientific Reports, 2019).

Tested on: MD2-TLR4
Conditions: literature; ref [62]–[65]; cited from earlier work
Description: Multiple anti-inflammatory immunomodulatory therapies have been developed to ameliorate proinflammation following bacterial infection. […] Therefore, novel therapeutic approaches that decrease inflammatory responses should be developed, and researchers should expand the focus beyond agents that only treat the initial infe ...

CCCCCC/C=C\CCCCCCCCCC(=O)N[C@H]1[C@H](OC[C@H]2O[C@H](OP(=O)(O)O)[C@H](NC(=O)CC(=O)CCCCCCCCCCC)[C@@H](OCCCCCCCCCC)[C@@H]2O)O[C@H](COC)[C@@H](OP(=O)(O)O)[C@@H]1OCC[C@@H](CCCCCCC)OC [eritoran]
outcome in clinical trials (MD2-TLR4 antagonist; in words): unsuccessful in clinical trials
